From patent US6660742B2, “Compositions and methods of the use thereof achiral analogues of CC-1065 and the duocarmycins” (priority 2000, dated 2003) come the findings set out here.

This test relates to NCI-H322M. Briefly: NCI screen, NCI-H322M (Non-Small Cell Lung Cancer).

`COC(=O)c1[nH]c2c(O)cc(NC(=O)c3cc4cc(OC)c(OC)c(OC)c4[nH]3)c(CCCl)c2c1C(=O)OC` [Compound 22, Dimethyl 4-(2-chloroethyl)-7-hydroxy-5-(5,6,7-trimethoxyindole-2-carboxamido)indole-2,3-dicarboxylate]: for the setting “48 hour exposure”, the TGI turned out to be 2.38E−06 Molar. The “Percent Growth” value (Log10 Concentration −4.3, 48 hour exposure) was −22%.
